From PubChem BioAssay AID504803 (The Scripps Research Institute Molecular Screening Center, 2011) come the findings set out here.

Protein sequences, listed by entry. Tags and fused reporters are not part of them.
UniProt Q92743, whole entry: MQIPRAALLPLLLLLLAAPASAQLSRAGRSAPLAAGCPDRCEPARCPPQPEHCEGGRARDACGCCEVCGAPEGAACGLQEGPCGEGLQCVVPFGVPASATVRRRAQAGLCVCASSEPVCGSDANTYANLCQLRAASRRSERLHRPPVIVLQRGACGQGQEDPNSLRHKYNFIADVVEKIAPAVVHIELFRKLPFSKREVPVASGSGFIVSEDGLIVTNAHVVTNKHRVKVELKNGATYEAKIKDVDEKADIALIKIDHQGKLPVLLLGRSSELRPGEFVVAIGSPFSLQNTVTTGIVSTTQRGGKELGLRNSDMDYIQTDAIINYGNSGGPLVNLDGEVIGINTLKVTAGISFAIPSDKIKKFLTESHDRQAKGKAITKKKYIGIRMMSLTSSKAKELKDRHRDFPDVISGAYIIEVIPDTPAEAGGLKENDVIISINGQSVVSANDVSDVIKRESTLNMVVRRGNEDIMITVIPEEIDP

Each structure is given as a SMILES string. The entries are a selection whose mix differs from that of the whole data set. Some of these compounds have results that are not shown, active ones among them. Active and inactive are the calls of the source. Rule as the data show it: active = inhibition above about 36%; inactive = the rest.

The experiment concerns the target Serine protease HTRA1 (Homo sapiens) (UniProt Q92743). Nature of the experiment: HTRA1 serine protease inhibitors, primary screen, biochemical, fluorescence polarization, HTS (AID 504803).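 Also: 0% = enzyme with DMSO and 100% = wells lacking enzyme.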 Particulars: recombinant HTRA1, FP-rhodamine activity-based probe, at 5.96 µM, stronger effect = higher value.
For the molecule `CN1[C@@H]2CC[C@H]1CC(OC(=O)C(O)(c1ccccc1)c1ccccc1)C2` (stereo partly specified), the inhibition is inactive: 5.84%. The value for `O=C(NCC1(N2CCCCC2)CCCCC1)c1cc([N+](=O)[O-])ccc1Cl` was inactive: 5.02%; that for `Cc1ccc(C(=O)NCC2(N3CCCCC3)CCCCC2)cc1` was inactive: -2.32%; that for `COc1cc(SC)ccc1C(=O)NCC1(N(C)C)CCCCC1` was inactive: 6.89%. The value for `CCN(CC)CC(C)C(C)OC(=O)C(O)(c1ccccc1)c1ccccc1` (stereo unspecified) was inactive: -2.25%; that for `CC(C)N1C(=O)CC2(CCN(CCOC(=O)C(O)(c3ccccc3)c3ccccc3)CC2)C1=O` was inactive: -3.28%; that for `CN(C)C1CCCC1OC(=O)C(O)(c1ccccc1)c1ccccc1` (stereo unspecified) was inactive: 13.2%.

On to `CN(C)c1ccc(C(=O)NCC2(N(C)C)CCCCC2)cc1`, for which the inhibition was inactive: 1.54%.

`Cc1ccccc1C(=O)NCC1(N2CCCCC2)CCCCC1`: the inhibition was inactive: 7.4%. With `COc1ccc(C(=O)NCC2(N(C)C)CCCCC2)cc1`, the inhibition is inactive: 6.74%. Take `O=C(NCC1(N2CCCCC2)CCCCC1)c1cccc(Br)c1`: the inhibition is inactive: -2.28%.

As for `Cc1cc(C(=O)NCC2(N3CCCCC3)CCCCC2)ccc1[N+](=O)[O-]`, the inhibition was inactive: 4.52%. The value for `CCN1CCCC(OC(=O)C2(O)c3ccccc3C=Cc3ccccc32)C1` (stereo unspecified) was inactive: -1%; that for `O=C(NCC1(N2CCCCC2)CCCCC1)c1cc(F)c(F)cc1Cl` was inactive: -3.79%. In the case of `C=CCN1CCN(CCOC(=O)C(O)(c2ccccc2)c2ccccc2)CC1`, the inhibition was inactive: -1.21%. The value for `COc1cc(C(=O)NCC2(N(C)C)CCCCC2)c([N+](=O)[O-])cc1OC` was inactive: -4.35%; that for `CN(C)C1(CNC(=O)c2ccc(Br)cc2)CCCCC1` was inactive: 7.13%.

Regarding `O=C(NCC1(N2CCCCC2)CCCCC1)c1cccc(Cl)c1`, the inhibition is inactive: -2.01%.

Consider `COc1ccc(Cl)cc1C(=O)NCC1(N(C)C)CCCCC1`, for which the inhibition was inactive: 5.15%.

For `COc1cccc(C(=O)NCC2(N3CCCCC3)CCCCC2)c1`, the inhibition was inactive: 7.56%. The value for `O=C(OC1CN2CCC1CC2)C(CO)(c1ccccc1)c1ccccc1` (stereo unspecified) was inactive: -1.89%; that for `O=C(OCCN1CCCC1)C(O)(c1ccccc1)c1ccccc1` was inactive: 0.09%; that for `CC(C)Oc1ccc(C(=O)NCC2(N(C)C)CCCCC2)cc1` was inactive: 8.02%. Consider `CN(C)c1cccc(C(=O)NCC2(N(C)C)CCCCC2)c1`, for which the inhibition was inactive: 5.82%. For `C=C(C)C#CC(O)(C(=O)OC1CCN(C)CC1)c1ccccc1` (stereo unspecified), the inhibition is inactive: 9.88%.

For the molecule `COc1ccc(Br)c(C(=O)NCC2(N3CCCCC3)CCCCC2)c1`, the inhibition is inactive: 0.96%.
